# Test system: CD34+ cells
# Assay: Culture of CD34+ cells in the presence of commonly used cytokines
# Assay type: cell-based, human
# Protocol: To further validate the HSC culture recipe described in Example 1, CD34+ cord blood derived cells were grown for 7 days in media comprising the ingredients shown in Table 1 and flow cytometry analysis was used to assess markers of the LT-HSC state. Markers tested included Lineage (CD3, CD14, CD16, CD19, CD20, CD56), CD34, CD38, CD45RA and CD90. Additionally, cells were grown in media with SCF and TPO as a control, commonly used by others to promote HSC expansion. […] 100,000 cells were plated for each condition.
molecule,measurement,value
"IL3: commonly used cytokine to expand HSC (protein, UniProt P08700 20-152, looked up) Interleukin-3: APMTQTTPLKTSWVNCSNMIDEIITHLKQPPLPLLDFNNLNGEDQDILMENNLRRPNLEAFNRAVKSLQNASAIESILKNLLPCLPLATAAPTRHPIHIKDGDWNEFRRKLTFYLKTLENAQAQQTTLSLAIF",lineage bias of CD34+ cells cultured in the presence of the cytokine,induction of a myeloid bias

# Reference: patent US20230167408A1, “METHODS AND COMPOSITIONS FOR MAINTAINING AND EXPANDING HEMATOPOIETIC STEM CELLS” (Trailhead Biosystems Inc., priority 2021, published 2023)
